{"sequences": {"note": "The chains behind the UniProt entries cited, without tags or fusion partners.", "UniProt P42336, whole entry": "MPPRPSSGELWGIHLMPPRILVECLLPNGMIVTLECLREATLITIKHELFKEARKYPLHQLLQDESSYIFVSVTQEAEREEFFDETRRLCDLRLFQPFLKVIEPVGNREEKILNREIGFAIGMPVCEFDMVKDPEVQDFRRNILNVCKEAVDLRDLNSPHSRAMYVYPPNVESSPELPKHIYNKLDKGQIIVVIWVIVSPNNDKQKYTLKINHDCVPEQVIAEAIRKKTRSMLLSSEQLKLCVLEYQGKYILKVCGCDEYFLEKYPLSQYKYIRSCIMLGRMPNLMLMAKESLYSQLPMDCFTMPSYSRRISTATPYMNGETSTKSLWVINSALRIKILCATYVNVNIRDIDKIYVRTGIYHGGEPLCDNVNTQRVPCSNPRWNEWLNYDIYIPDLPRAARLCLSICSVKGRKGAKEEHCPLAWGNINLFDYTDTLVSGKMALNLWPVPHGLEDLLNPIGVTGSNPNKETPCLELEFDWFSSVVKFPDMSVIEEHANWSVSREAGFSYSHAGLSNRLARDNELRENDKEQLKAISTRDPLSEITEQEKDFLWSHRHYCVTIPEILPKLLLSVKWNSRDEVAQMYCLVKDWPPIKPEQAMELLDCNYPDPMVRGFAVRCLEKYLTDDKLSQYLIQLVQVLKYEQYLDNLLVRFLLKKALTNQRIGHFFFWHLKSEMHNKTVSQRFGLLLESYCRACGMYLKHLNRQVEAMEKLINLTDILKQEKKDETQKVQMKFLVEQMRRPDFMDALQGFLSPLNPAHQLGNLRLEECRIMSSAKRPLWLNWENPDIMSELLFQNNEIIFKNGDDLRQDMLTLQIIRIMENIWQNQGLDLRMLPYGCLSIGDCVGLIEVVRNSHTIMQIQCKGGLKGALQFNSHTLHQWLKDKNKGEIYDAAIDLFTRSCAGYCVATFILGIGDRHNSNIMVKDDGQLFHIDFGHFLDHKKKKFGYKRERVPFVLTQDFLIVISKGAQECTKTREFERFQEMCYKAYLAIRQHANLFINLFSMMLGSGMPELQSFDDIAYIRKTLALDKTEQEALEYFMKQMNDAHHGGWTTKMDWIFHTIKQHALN"}, "source": "patent US9120812B2", "about": "“Pyrimidooxazocine derivatives as mTOR-inhibitors” (SANOFI, priority 2012, dated 2015)", "key": {"U87MG tumour cells": {"tested_on": "U87MG tumour cells", "assay": "Test of in vitro proliferation of U87MG tumour cells", "format": "cell-based", "settings": "read-out: U87 Cell Proliferation IC50, 72 hours", "procedure": "Model 4: Test of in vitro Proliferation of U87MG Tumour Cells.\nThe cell growth is determined with the reagent CellTiter 96 AQueous One Solution Cell Proliferation Assay from Promega (Cat. No. G3581).\nA reading at T=0 (before the 72 hours of incubation) is taken, corresponding to 100% inhibition."}, "PI3Kα (p110α/p85α)": {"biological_target": "PI3Kα (p110α/p85α) (Homo sapiens (Human), UniProt P42336)", "assay": "PI3Kα enzymatic test by measuring the consumption of ATP"}, "Akt-pS473 in U87MG cells": {"tested_on": "Akt-pS473 in U87MG cells", "settings": "read-out: U87 Akt-pS473 % Inhibition or IC50, nM (IC50)"}, "[1]": {"biological_target": "mTOR (human recombinant aa mTOR 1360-2549) (Homo sapiens (Human), UniProt P42345)", "assay": "mTOR enzymatic test by TR-FRET (phosphorylation of GFP-4EBP1)", "settings": "read-out: mTOR IC50"}}}
{"smiles": "CN1CC(C)(C)Oc2nc(N3CC4CCC(C3)O4)nc(-c3ccc(NC(=O)Nc4ccc(N5CC6CCC(C5)O6)nc4)c(F)c3)c2C1=O", "values": [{"measurement": "IC50", "setting": "U87MG tumour cells", "value": 77, "unit": "nM"}, {"measurement": "PI3Ka IC50", "setting": "PI3Kα (p110α/p85α)", "value": ">10000", "unit": "nM"}, {"measurement": "IC50", "setting": "Akt-pS473 in U87MG cells", "value": 29, "unit": "nM"}, {"measurement": "IC50", "setting": "[1]", "value": 60, "unit": "nM"}]}
